Measured values from patent US8722670B2, “Selective NR2B antagonists” (Bristol-Myers Squibb Company, priority 2011, dated 2014).

The chains behind the UniProt entries cited, without tags or fusion partners. Residues count along the entry.
UniProt Q13224, 27-1484 limits assumed: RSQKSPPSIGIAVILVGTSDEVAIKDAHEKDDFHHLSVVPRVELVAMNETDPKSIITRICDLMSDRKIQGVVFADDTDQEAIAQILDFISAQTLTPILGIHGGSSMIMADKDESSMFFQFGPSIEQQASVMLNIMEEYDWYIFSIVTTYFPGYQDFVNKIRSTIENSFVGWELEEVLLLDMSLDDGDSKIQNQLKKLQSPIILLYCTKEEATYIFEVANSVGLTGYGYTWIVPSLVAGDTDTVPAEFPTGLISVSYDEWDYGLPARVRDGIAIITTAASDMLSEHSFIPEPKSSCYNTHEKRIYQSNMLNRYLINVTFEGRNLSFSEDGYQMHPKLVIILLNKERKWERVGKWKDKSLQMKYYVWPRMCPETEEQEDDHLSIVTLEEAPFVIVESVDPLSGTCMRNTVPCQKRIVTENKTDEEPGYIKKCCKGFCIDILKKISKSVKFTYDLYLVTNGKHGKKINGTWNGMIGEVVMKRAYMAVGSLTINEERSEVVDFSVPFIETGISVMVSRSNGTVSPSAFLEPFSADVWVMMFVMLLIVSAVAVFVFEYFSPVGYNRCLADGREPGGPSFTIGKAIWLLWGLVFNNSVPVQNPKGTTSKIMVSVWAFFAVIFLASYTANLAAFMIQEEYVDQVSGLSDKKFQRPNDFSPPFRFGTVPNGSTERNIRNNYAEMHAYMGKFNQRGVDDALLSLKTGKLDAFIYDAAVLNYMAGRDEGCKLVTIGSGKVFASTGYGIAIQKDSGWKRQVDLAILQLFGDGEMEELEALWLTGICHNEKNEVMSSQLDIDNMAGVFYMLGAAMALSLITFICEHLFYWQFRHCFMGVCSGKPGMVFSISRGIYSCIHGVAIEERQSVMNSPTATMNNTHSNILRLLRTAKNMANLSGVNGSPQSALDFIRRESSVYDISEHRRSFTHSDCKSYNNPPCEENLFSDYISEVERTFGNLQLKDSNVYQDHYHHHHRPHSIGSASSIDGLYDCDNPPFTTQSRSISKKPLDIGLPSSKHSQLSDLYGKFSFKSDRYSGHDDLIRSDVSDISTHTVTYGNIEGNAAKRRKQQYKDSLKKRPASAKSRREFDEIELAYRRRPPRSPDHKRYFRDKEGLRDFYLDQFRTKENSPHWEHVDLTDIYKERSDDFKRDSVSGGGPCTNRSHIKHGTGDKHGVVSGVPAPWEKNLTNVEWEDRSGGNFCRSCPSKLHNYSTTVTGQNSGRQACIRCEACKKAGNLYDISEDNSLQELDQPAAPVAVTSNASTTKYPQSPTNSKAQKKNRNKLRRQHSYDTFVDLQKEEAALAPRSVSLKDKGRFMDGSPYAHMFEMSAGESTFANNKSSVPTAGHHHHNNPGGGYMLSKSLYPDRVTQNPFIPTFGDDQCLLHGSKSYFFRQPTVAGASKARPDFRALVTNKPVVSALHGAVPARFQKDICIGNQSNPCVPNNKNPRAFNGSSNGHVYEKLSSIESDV

Target: hNR2B (Homo sapiens, UniProt Q13224)
Assay: Electrophysiology NMDA receptor experiments: two electrode voltage-clamp in Xenopus laevis oocytes, hNR2B IC50
Conditions: read-out: Activity, hNR2B activity class, 50 μM glutamate, 30 μM glycine

SMILES | IC50
Cc1ccccc1Nc1nnc(COc2ccc3[nH]c(=O)ccc3c2)o1 | > 10 µM
CC(Oc1ccc2[nH]c(=O)ccc2c1)c1nnc(Nc2ccc(OC(F)F)cc2)o1 (racemic) | < 0.2 µM
COc1ccc(CNc2nnc(COc3ccc4[nH]c(=O)ccc4c3)o2)cc1 | < 0.2 µM
O=c1ccc2cc(OCc3nnc(NCc4ccccc4)o3)ccc2[nH]1 | 1 to 10 µM
Clc1ccc(Nc2nnc(COc3ccc4[nH]ncc4c3)o2)cc1 | 0.201 to 1 µM
Cc1ccccc1CNc1nnc(COc2ccc3[nH]c(=O)ccc3c2)o1 | 1 to 10 µM
O=c1ccc2cc(OCc3nnc(Nc4ccc5c(c4)OCCO5)o3)ccc2[nH]1 | 1 to 10 µM
N#Cc1ccc(CNc2nnc(COc3ccc4[nH]c(=O)ccc4c3)o2)cc1 | 1 to 10 µM
O=C1Cc2cc(OCc3nnc(Nc4ccc(C(F)(F)F)cc4)o3)ccc2N1 | 0.201 to 1 µM
O=c1ccc2cc(OCc3nnc(Nc4ccc(OC(F)F)c(F)c4)o3)ccc2[nH]1 | < 0.2 µM
CC(C)(C)c1ccc(CNc2nnc(COc3ccc4[nH]c(=O)ccc4c3)o2)cc1 | 1 to 10 µM
O=c1ccc2cc(OCc3nnc(NCc4ccc(F)cc4)o3)ccc2[nH]1 | 0.201 to 1 µM
COc1ccc(Nc2nnc(COc3ccc4[nH]c(=O)ccc4c3)o2)cc1 | 1 to 10 µM
CC1(C)Cc2cc(OCc3nnc(Nc4ccc(C(F)(F)F)cc4)o3)ccc2NC1=O | 1 to 10 µM
O=c1ccc2cc(OCc3nnc(NCc4ccc5c(c4)OCCO5)o3)ccc2[nH]1 | 0.201 to 1 µM
O=c1ccc2cc(OCc3nnc(Nc4ccc5c(c4)OCO5)o3)ccc2[nH]1 | 1 to 10 µM
N#Cc1ccc(Nc2nnc(COc3ccc4[nH]c(=O)ccc4c3)o2)cc1 | > 10 µM
CC(C)(C)c1ccc(Nc2nnc(COc3ccc4[nH]c(=O)ccc4c3)o2)cc1 | 1 to 10 µM
CC(C)Oc1ccc(Nc2nnc(COc3ccc4[nH]c(=O)ccc4c3)o2)cc1 | 0.201 to 1 µM
Cc1ccc(Nc2nnc(COc3ccc4[nH]c(=O)ccc4c3)o2)cc1C | 0.201 to 1 µM

Now from value to compound:

IC50 | SMILES
0.201 to 1 µM | CC(Oc1ccc2[nH]c(=O)ccc2c1)c1nc(Nc2ccc(Cl)c(Cl)c2)no1 (stereo not shown)
1 to 10 µM | Clc1ccc(Nc2noc(CCNc3ncccn3)n2)cc1Cl
< 0.2 µM | O=c1ccc2cc(OCc3nnc(Nc4ccc(C(F)(F)F)c(F)c4)o3)ccc2[nH]1
> 10 µM | O=c1ccc2cc(OCc3nc(Nc4cccc(Cl)c4Cl)no3)ccc2[nH]1
> 10 µM | Fc1cc(Nc2noc(CCCc3ccc4cn[nH]c4c3)n2)ccc1Cl
< 0.2 µM | O=c1ccc2cc(OCc3nnc(NCc4ccc(F)c(F)c4)o3)ccc2[nH]1
1 to 10 µM | O=c1ccc2cc(OCc3nnc(Nc4ccc(C(F)(F)F)nc4)o3)ccc2[nH]1
> 10 µM | FC(F)(F)c1n[nH]c2ccc(CCc3nc(Nc4ccc(Cl)c(Cl)c4)no3)cc12
1 to 10 µM | CC(Oc1ccc2[nH]ncc2c1)c1nc(Nc2ccc(Cl)c(Cl)c2)no1 (single isomer, unassigned) [175]
0.201 to 1 µM | Cc1ccc(Nc2noc(C(C)Oc3ccc4[nH]c(=O)ccc4c3)n2)cc1F (racemic)
0.201 to 1 µM | O=c1ccc2cc(OCc3nnc(Nc4ccc(F)c(F)c4)o3)ccc2[nH]1
1 to 10 µM | Cc1cc(Nc2noc(C(C)Oc3ccc4[nH]ncc4c3)n2)ccc1OC(F)F (stereo not shown)
1 to 10 µM | CC(Oc1ccc2[nH]ncc2c1)c1nc(Nc2ccc(OC(F)F)c(Cl)c2)no1 (single isomer, unassigned) [177]
< 0.2 µM | CC(Oc1ccc2[nH]ncc2c1)c1nc(Nc2ccc(OC(F)F)c(Cl)c2)no1 (single isomer, unassigned) [176]
> 10 µM | CC(Oc1ccc2[nH]c(=O)ccc2c1)c1nc(Nc2cc(Cl)cc(Cl)c2)no1 (racemic)
0.201 to 1 µM | CC(Oc1ccc2[nH]ncc2c1)c1nc(Nc2ccc(Cl)c(Cl)c2)no1 (single isomer, unassigned) [174]
1 to 10 µM | CC(Oc1ccc2[nH]ncc2c1)c1nc(Nc2ccc(Cl)c(Cl)c2)no1 (single isomer, unassigned) [172]
> 10 µM | Cc1ccc(Nc2noc(CCc3ccc4c(c3)C(C)(C)OC(=O)N4)n2)cc1F
< 0.2 µM | COc1ccc(Nc2nnc(COc3ccc4[nH]c(=O)ccc4c3)o2)cc1Cl
0.201 to 1 µM | CC(Oc1ccc2[nH]c(=O)ccc2c1)c1nc(Nc2ccc(Cl)c(F)c2)no1 (racemic)
1 to 10 µM | O=C1CCc2cc(OCc3nnc(Nc4ccc(Cl)c(Cl)c4)o3)cc(Cl)c2N1
1 to 10 µM | FC(F)Oc1ccc(Nc2noc(CCNc3ncccn3)n2)cc1Cl
< 0.2 µM | O=c1ccc2cc(C3CC3c3nc(Nc4ccc(OC(F)F)c(Cl)c4)no3)ccc2[nH]1 (stereo not shown)
0.201 to 1 µM | CC(Oc1ccc2[nH]ncc2c1)c1nc(Nc2ccc(OC(F)F)c(Cl)c2)no1 (single isomer, unassigned) [173]
1 to 10 µM | CC(Oc1ccc2[nH]c(=O)ccc2c1)c1nc(Nc2ccc(Cl)cc2)no1 (stereo not shown)
1 to 10 µM | O=c1ccc2cc(OCc3nnc(NCc4ccc(C(F)(F)F)c(Cl)c4)o3)ccc2[nH]1
1 to 10 µM | COc1ccc(Nc2noc(C(C)Oc3ccc4[nH]c(=O)ccc4c3)n2)cc1Cl (stereo not shown)

Same assay, conditions: read-out: hNR2B IC50, voltage clamp -40 mV, 50 μM glutamate, 30 μM glycine

SMILES | IC50
O=c1ccc2cc(OCc3nnc(Nc4ccc5c(c4)OCCO5)o3)ccc2[nH]1 | 1.01 µM
O=c1ccc2cc(OCc3nnc(NCc4ccc(F)cc4)o3)ccc2[nH]1 | 0.328 µM
O=c1ccc2cc(OCc3nnc(Nc4ccc5c(c4)OCO5)o3)ccc2[nH]1 | 1.74 µM

Further lines, results first:

IC50 | SMILES
3.45 µM | O=C1CCc2cc(OCc3nnc(Nc4ccc(Cl)c(Cl)c4)o3)cc(Cl)c2N1
0.345 µM | CC(Oc1ccc2[nH]ncc2c1)c1nc(Nc2ccc(OC(F)F)c(Cl)c2)no1 (single isomer, unassigned) [173]
